## Binding of CDR-mutated scFvs to a peptide of the spike HR2 region

Antigen: PDVDLGDISGINAS, a 14-residue peptide of the SARS-CoV-2 spike HR2 region.

The variants keep the heavy chain, the linker and the frameworks of Ab-14 (scFv order VH, a 15-residue (Gly4Ser)3 linker, VL).
VH: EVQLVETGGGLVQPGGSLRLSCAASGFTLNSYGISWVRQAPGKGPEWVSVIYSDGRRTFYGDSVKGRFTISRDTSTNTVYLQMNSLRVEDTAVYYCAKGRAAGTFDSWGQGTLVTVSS
VL: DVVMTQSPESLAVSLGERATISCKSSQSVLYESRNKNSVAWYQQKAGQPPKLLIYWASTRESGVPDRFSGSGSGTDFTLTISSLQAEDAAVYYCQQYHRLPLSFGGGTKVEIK

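The variants were designed computationally from a first round of random CDR variants and then made and measured. Several design methods are mixed in this list. The assay is AlphaSeq: two haploid yeast populations carry antibody and antigen on their surface. After mating in shaken culture at 30 °C for 16 h, diploids were selected and their barcode pairs sequenced. A regression on co-assayed BCL2-family reference pairs converts the normalised counts of each replicate to an apparent Kd. Mating was done six times.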

The parent's light chain CDRs are KSSQSVLYESRNKNSVA, WASTRES, QQYHRLPLS; each variant's own CDRs replace them letter for letter.
Variants here have more than six changes.
Each Kd is an estimate from the mating assay, the geometric mean of the replicates in which the pair was seen; lower is stronger.
An entry "nd" has no value in the source: the pair was not observed among the diploids in any replicate. This suggests poor binding but is not conclusive.
Of ten entries with the parent sequence, four were seen in most replicates (averages 2.2 nM to 240 nM), three in one and three in none, so single entries are noisy.
Nonspecific signal, from three strains lacking the peptide, appeared in 4% of pairings of all light chain designs, centred on 430 nM (5% of these signals below 38 nM); values are not corrected for it. Also given: how often the same scFv was detected with the empty control strains.
The authors' rule: three or more of the six replicates give a measured affinity, fewer mean a poor binder.
The range of this assay differs from that of the first round, and the authors advise against merging the two.

Variant VMQIQSDGMLNAKHNVA / GVDMRLE / QHYFRLPLL gave 21 nM (6 of 6 replicates; controls 3 of 18). For MISQLMNLGQFAINSVA / QAEIRNN / QQYDRLPLI, the assay gave 47 nM (4 of 6 replicates; controls 0 of 18). Variant KVSEFMRGLMQKTDSIA / DNVTRNN / QQYDRLPLS showed 5.4 nM (6 of 6 replicates; controls 1 of 18). For KVWQSVLGQERNKMSVA / QASTRES / QQYHRLPLS, the assay gave 2.9 nM (6 of 6 replicates; controls 0 of 18). With KLQNFSQEDNKMWNNVA / DMTMKHT / QQYNRLPLE the result was 1.0 nM (6 of 6 replicates; controls 1 of 18). Variant KLQQSELMEERNSNSVA / SASLRES / QQYHRLPLS gave 1.3 nM (6 of 6 replicates; controls 3 of 18).

For KLMEQAEYESRNKNSVA / QASTREM / QQYHRLPLS, the assay gave 720 pM (6 of 6 replicates; controls 1 of 18). For QIYQAMHTLMGAKNNVA / DVTNRGK / QQYNRLPLS, the assay gave 760 pM (6 of 6 replicates; controls 0 of 18). With KMSQSQLYEERASNAVA / HASQRES / QQYHRLPLS the result was 2.8 nM (6 of 6 replicates; controls 1 of 18). Variant MISDLAMYGSRNKNSVA / DLSTRGS / QQYHRLPLS showed 1.1 nM (6 of 6 replicates; controls 1 of 18). For KIGMTLNQLLHQKNNVA / DLVEREN / QQYFRLPLS, the assay gave 980 pM (6 of 6 replicates; controls 0 of 18). Variant KYSQSQLYEDRMVNSVA / NASQREE / QQYHRLPLS gave 8.2 nM (6 of 6 replicates; controls 3 of 18).

For KISMLQRFQSNAKNNIA / EMNRREE / QQYHRLPLS, the assay gave 4.5 nM (6 of 6 replicates; controls 0 of 18). For IVSQLMLWGWHQKNSIA / EAQTRLN / QQYDRLPLF, the assay gave nd (0 of 6 replicates; controls 0 of 18). For TIGMFMDNLSQNRNNVA / DTSTLGS / QSYDRLPLS, the assay gave 11 nM (6 of 6 replicates; controls 0 of 18). Variant HFSQVTMYGSWNKNSVA / QTSTREE / QQYDRLPLS gave 180 nM (1 of 6 replicates; controls 0 of 18). Variant LIKGMVEGQYYWQNAIA / NSEERDR / QQYNHLPLS showed 12 nM (6 of 6 replicates; controls 1 of 18). For KIELSNSVSLRGTRAIA / QGSERAH / QQYHRLPLT, the assay gave 1.1 nM (6 of 6 replicates; controls 1 of 18).

Variant KISQMTRVGSTHGNSIA / EEVTRAK / QQYHRLPLA showed nd (0 of 6 replicates; controls 0 of 18). For KLPNSSLYESRNKNQVA / SASQREM / QQYHRLPLS, the assay gave 4.5 nM (6 of 6 replicates; controls 1 of 18). For SLQDMERIMNSHEQAIA / DGTESAR / QQYFQLPLH, the assay gave 3.8 nM (6 of 6 replicates; controls 0 of 18). Variant HISMMVGTKGYTKNSVA / NAETRED / QQYHRLPLS gave 520 pM (6 of 6 replicates; controls 2 of 18). Variant HVAQTRQEDIQNKNSVA / EGSVVIS / QQYSKLPFS gave 2.1 nM (6 of 6 replicates; controls 0 of 18). With KMWDNEYDTAAMNHSIA / NDSLERD / QQYDRLPLA the result was 2.9 µM (1 of 6 replicates; controls 0 of 18).

With KLTFYMQGSNAMDNSIA / QTNIYHE / QQYGRLPLV the result was nd (0 of 6 replicates; controls 0 of 18). For NMQMQQDRMQDAKQNVA / GVDMREE / QQYFRLPFL, the assay gave 640 pM (6 of 6 replicates; controls 0 of 18). Variant KLQQESNNMNDIQNSVA / DESMLEY / QHYWRLPLT gave 590 nM (4 of 6 replicates; controls 0 of 18). Variant KHSISVWGGDRNKNSVA / DASTRES / QQYHRLPLS gave 1.0 nM (6 of 6 replicates; controls 1 of 18). With KLEYWADTFHQNDNSIA / HMTSVRD / QQYHRLPLA the result was nd (0 of 6 replicates; controls 0 of 18). For KQQQSGMMESRNQNSVA / QASTRLS / QQYHRLPLS, the assay gave 3.5 nM (6 of 6 replicates; controls 1 of 18).

For KLPMATMQESVSKNNVA / ELSTRGS / QQYHRLPLS, the assay gave 340 nM (2 of 6 replicates; controls 0 of 18). Variant AFTNSIFYGQRDDNSIA / HADELEK / QQYFRFPLA gave 120 nM (5 of 6 replicates; controls 0 of 18). Variant KIQSHLSQSFASWNNIA / DREQSAE / QQYNRLPLV gave 1.8 nM (6 of 6 replicates; controls 0 of 18). With KIFQSWLGEQRNVNSVA / HASQRLD / QQYHRLPLS the result was 2.1 nM (6 of 6 replicates; controls 1 of 18). With HISANMWMQGSQWDAVA / QGEIANN / QQYARLPLS the result was 11 nM (3 of 6 replicates; controls 0 of 18). Variant MISQLMNMGQFAINSVA / QASIRNE / QQYDRLPLT showed 23 nM (6 of 6 replicates; controls 0 of 18).

Variant TISTLMRYESSLKNAIA / NAQTREQ / QQYHRLPIS gave 4.8 nM (6 of 6 replicates; controls 2 of 18).

5 of these entries, quoted again:

CDR-L1,CDR-L2,CDR-L3,Kd (apparent),replicates with signal,control signals
KLPMATMQESVSKNNVA,ELSTRGS,QQYHRLPLS,340 nM,2/6,0/18
KIQSHLSQSFASWNNIA,DREQSAE,QQYNRLPLV,1.8 nM,6/6,0/18
KQQQSGMMESRNQNSVA,QASTRLS,QQYHRLPLS,3.5 nM,6/6,1/18
KHSISVWGGDRNKNSVA,DASTRES,QQYHRLPLS,1.0 nM,6/6,1/18
KLPNSSLYESRNKNQVA,SASQREM,QQYHRLPLS,4.5 nM,6/6,1/18

Values reported by Li et al. 2023, doi:10.1038/s41467-023-39022-2 (FLAb copy).